uPA surface inh: inhibitors of cell surface uPA generation; cell surface uPA generation assay, qHTS; hit rate 0.31% among 330,000; AID 540303; Potency, µM (series often up to 38.3 µM), for the others: top-dose activity change, negative = inhibition, actives largely listed as inhibitors; active = well fitted inhibition curve with a large enough effect; inconclusive = small, poorly fitted or top-dose-only effect; inactive = no such curve, though single readings can be large or run the other way; tested in mouse RAW 264.7 cells; also: potency is read from the fitted curve at half-maximal effect; % is scaled to controls: 0 for no effect and ±100 for the full control effect; nearly all actives have a fitted effect of over 55% in size
DT40 TDP1 CPT: growth inhibition of DT40 Tdp1-/-;hTDP1 cells with camptothecin (screen for TDP1 inhibitors); Potency, µM (doses to about 46.2 µM), for inactives: at the top dose activity change, negative = growth inhibition, hits mostly inhibitors; chicken DT40 Tdp1-/-;hTDP1 cells + 20 nM CPT, ATP luminescence, 48 h; hit rate 12% among 420,000; also: potency is read from the fitted curve at half-maximal effect; % is scaled to controls: 0 for no effect and ±100 for the full control effect; nearly all actives have a fitted effect of over 55% in size
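Cell growth measured by CellTiter-Glo luminescence after a minimum 48 h, 37 C compound exposure with 20 nM CPT in Tdp1-knockout DT40 cells stably expressing hTDP1, seeded 400/well; qHTS titration format.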
TDP1 block: TDP1 (human) enzyme inhibition; Q9NUW8; recombinant TDP1, AlphaScreen DNA substrate cleavage; Potency, µM (highest dose often 130 µM), for the others: at the top dose activity change, negative = inhibition, usual class: inhibitors; hit rate 0.28% among 350,000; also: potency is read from the fitted curve at half-maximal effect; % is scaled to controls: 0 for no effect and ±100 for the full control effect; nearly all actives have a fitted effect of over 40% in size
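AlphaScreen read-out: signal falls as enzyme removes the 3' tyrosine-FITC from a 5'-biotinylated DNA oligo (15 nM, 5 min, RT). Enzyme was E. coli-made recombinant Tdp1 at 1 nM, exposed to compound for 15 min beforehand; beads 10 ug/ml, 10 min.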
DT40 TDP1 no CPT: qHTS for Inhibitors of human tyrosyl-DNA phosphodiesterase 1 (TDP1): qHTS in cells in absence of CPT | AID 686978, 2013 | hit rate 15% among 420,000 | DT40 Tdp1-/- hTDP1 cells, no CPT, ATP luminescence, 48 h | Potency, µM (doses to about 46.2 µM), for inactives: top-dose activity change, negative = growth inhibition, actives largely listed as inhibitors; also: potency is read from the fitted curve at half-maximal effect; % is scaled to controls: 0 for no effect and ±100 for the full control effect; nearly all actives have a fitted effect of over 55% in size
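Compound effects on proliferation are scored in DT40 Tdp1-/-;hTDP1 cells in the absence of CPT. ATP levels (CellTiter-Glo luminescence) are recorded after a ≥48 hr, 37 °C incubation.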
miR-21 reporter: miR-21 reporter, rising signal | HeLa miR-21 FLuc reporter, luciferase, 48 h | Potency, µM (doses to about 38.3 µM), inactives show at the top dose reporter change, positive = more light | 340,000 tested, under 10 active | AID 2288; active = well fitted rising curve with a large enough effect; inconclusive = small, poorly fitted or top-dose-only effect; inactive = no such curve, though single readings can be large or run the other way;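 note: % of control where 0% means no effect; miR-21 action dims this reporter so a rising signal means less miR-21 action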
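HeLa cells endogenously expressing miR-21, stably carrying CMV-driven firefly luciferase with a downstream miR-21 binding site, 2000 cells/well. Titrations up to approximately 40 uM, 48 hours; luciferase luminescence read.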
Starred values were filed as active, the others as inactive; u = inconclusive; x = no result. The list is not random: actives were taken first. Their share in the collection is about 16%. Unless noted, calls follow the shape of the dose curve; as a rule, active = well fitted curve in the direction sought with a large enough effect; inconclusive = small, poorly fitted or top-dose-only effect, or another doubt; inactive = no such curve, though single readings can be large; an effect the other way counts as inactive or inconclusive.

Assay codes – A = uPA surface inh; B = DT40 TDP1 CPT; C = TDP1 block; D = DT40 TDP1 no CPT; E = miR-21 reporter
CCCCCOC(=O)C1=C(C)Nc2nnnn2C1c1ccccc1Cl (configuration not stated)
  A = 2% | B = u | C = 8% | D = 21µM* | E = 21%
CC1=C(C(=O)OCc2ccccc2)C(c2cccnc2)n2nnnc2N1 (configuration not stated)
  A = 0% | B = u | C = -3% | D = 16µM* | E = -8%
COc1ccc(NC(=O)CCn2nc(C)cc2C)cc1
  A = -1% | B = 9% | C = 6% | D = 1% | E = -9%
CCc1ccc(NC(=O)CCn2nc(-c3ccccc3OC)c3c(C)cc(C)nc32)cc1
  A = x | B = u | C = 0% | D = 21µM* | E = 13%
COc1ccc(NC(=O)CCn2nc(-c3ccccc3OC)c3c(C)cc(C)nc32)cc1
  A = x | B = u | C = 5% | D = 21µM* | E = 6%
NNC(=O)c1nc(-c2cccc(-n3cccc3)c2)no1
  A = 2% | B = u | C = x | D = u | E = -2%
CCCn1c(C)nc2c(c1=O)c1nc3ccccc3nc1n2-c1ccccc1
  A = 0% | B = -18% | C = x | D = -15% | E = x
CSc1ccccc1OCc1cc(C(=O)N2CCN(C)C(c3ccccc3)C2)no1 (configuration not stated)
  A = 7% | B = 21µM* | C = x | D = -71% | E = x
C=CC[C@H]1CC(C)=C[C@H](CC=C)N1C(=O)c1cc(COc2ccccc2SC)on1
  A = -3% | B = u | C = 1% | D = 15µM* | E = 5%
COCC1CCN(C(=O)c2cc(COc3ccccc3SC)on2)C1 (configuration not stated)
  A = 0% | B = u | C = 2% | D = -19% | E = -8%
CN1CCN(C(=O)c2cc(COc3c(F)cccc3F)on2)CC1c1ccccc1 (configuration not stated)
  A = 4% | B = -19% | C = 0% | D = u | E = u
Cc1c(C)c2cc(Cl)c(OCC(=O)NCCCn3ccnc3)cc2oc1=O
  A = -4% | B = 5% | C = 2% | D = 3% | E = -4%
CCCc1nc2ccccc2c(=O)n1/N=C/c1c(C)[nH]n(-c2ccc(C)cc2)c1=O
  A = -9% | B = 21µM* | C = 12% | D = 12µM* | E = 2%
CCc1nc2ccccc2c(=O)n1/N=C/c1ccc(Cl)cc1
  A = -2% | B = -30% | C = x | D = 16µM* | E = x
COc1ccc(CCN2CCC(CNC(=O)c3cnn(-c4cccc(Cl)c4)c3C3CCN(C(=O)OC(C)(C)C)CC3)CC2)cc1
  A = x | B = 8.2µM* | C = 2% | D = 8.2µM* | E = 27%
COc1ccc(CCN2CCC(CNC(=O)c3cnn(-c4ccccc4)c3C3CCN(C(=O)OC(C)(C)C)CC3)CC2)cc1
  A = x | B = 12µM* | C = -1% | D = 8.2µM* | E = 22%
O=C(Nc1ccc(F)cc1)Nc1nnc([C@@H]2C[C@H](O)[C@@H](CO)O2)s1
  A = x | B = -10% | C = x | D = -6% | E = x
CC(CNC(=O)c1ccc2c(c1)nc1n2CCCCC1)c1ccccc1 (configuration not stated)
  A = x | B = 23µM* | C = 11% | D = u | E = -22%
CSc1ccc(CCNC(=O)c2ccc3c(c2)nc2n3CCC(C)C2)cc1 (configuration not stated)
  A = x | B = 21µM* | C = 11% | D = 13µM* | E = -6%
CC1CCn2c(nc3cc(C(=O)NCCc4ccccc4)ccc32)C1 (configuration not stated)
  A = x | B = -27% | C = 3% | D = u | E = 11%
COc1ccc(Br)cc1CNC(=O)c1ccc2c(c1)nc1n2CCCCC1
  A = x | B = u | C = 3% | D = 16µM* | E = 0%
CSc1ccc(CCNC(=O)c2ccc3c(c2)nc2n3CCCCC2)cc1
  A = x | B = -62% | C = 8% | D = 16µM* | E = -15%
COC(=O)c1cc(C)sc1NC(=O)CCc1ccccc1
  A = 2% | B = 2% | C = x | D = -4% | E = -2%
NC(N)=NS(=O)(=O)c1ccc(NC(=S)NC(=O)c2ccc3c(c2)OCO3)cc1
  A = -28% | B = 0% | C = 0% | D = 1% | E = -10%
Cc1ccc(C)c(CNC(=O)c2ccc3c(c2)nc2n3CCC(C)C2)c1 (configuration not stated)
  A = x | B = u | C = 8% | D = 21µM* | E = -23%
CCCn1c(N)c(N(CCOC)C(=O)CSCC(=O)Nc2ccc(C)cc2)c(=O)[nH]c1=O
  A = 16% | B = -7% | C = 0% | D = 0% | E = x

3 compounds drawn at random from those above, as already listed:
Assay codes – A = uPA surface inh; B = DT40 TDP1 CPT; C = TDP1 block; D = DT40 TDP1 no CPT; E = miR-21 reporter
C=CC[C@H]1CC(C)=C[C@H](CC=C)N1C(=O)c1cc(COc2ccccc2SC)on1
  A = -3% | B = u | C = 1% | D = 15µM* | E = 5%
NNC(=O)c1nc(-c2cccc(-n3cccc3)c2)no1
  A = 2% | B = u | C = x | D = u | E = -2%
COc1ccc(Br)cc1CNC(=O)c1ccc2c(c1)nc1n2CCCCC1
  A = x | B = u | C = 3% | D = 16µM* | E = 0%

Source: PubChem (National Center for Advancing Translational Sciences (NCATS))
